The source of these data is ChEMBL document CHEMBL1938393, “Multiparameter exploration of piperazine derivatives as δ-opioid receptor agonists for CNS indications” (Bioorg Med Chem Lett, 2012).

Sequences of proteins named here, by UniProt entry; tags and fusion partners are left off.
UniProt P41143, whole entry: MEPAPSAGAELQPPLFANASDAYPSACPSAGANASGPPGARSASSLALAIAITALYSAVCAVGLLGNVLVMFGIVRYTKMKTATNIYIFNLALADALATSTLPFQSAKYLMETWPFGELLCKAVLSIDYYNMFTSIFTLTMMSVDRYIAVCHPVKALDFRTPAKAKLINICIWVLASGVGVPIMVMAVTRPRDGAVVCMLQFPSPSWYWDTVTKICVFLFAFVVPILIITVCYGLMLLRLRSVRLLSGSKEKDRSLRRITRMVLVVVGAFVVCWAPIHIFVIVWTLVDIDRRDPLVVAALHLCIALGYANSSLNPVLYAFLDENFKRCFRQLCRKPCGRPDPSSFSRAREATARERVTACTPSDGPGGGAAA

The assay addresses Delta-type opioid receptor (Homo sapiens, UniProt P41143). Description: Displacement of [I125]deltorphin from delta-opioid receptor overexpressed in human HEK293 cells. Type of assay: cell-based.

Molecules are shown by their SMILES.

The IC50 is the point on the concentration scale where inhibition reaches its midpoint. For `CCOC(=O)Nc1ccccc1[C@@H](c1ccc(C(=O)N(CC)CC)cc1)N1CCN(Cc2cscn2)CC1`, the IC50 was determined as 0.78 nM.
